Results from patent US7704987B1, “β-amyloid peptide inhibitors” (Prana Biotechnology Ltd, priority 1999, dated 2010).

Tested on: Aβ deposited in the brains of Alzheimer's disease patients
Assay: Brain tissue assay: solubilisation of Aβ deposits from post-mortem AD brain (Western blot)
Parameters: species or system human
Details: post-mortem brain homogenate in PBS, 24 h at room temperature, Western blot (FIG. 7); compound concentrations as in Table 1

For “Iron(III) phthalocyanine chloride [KJB005]”, the “ability to solubilise Aβ deposited in the brains of Alzheimer's disease patients” value was “good activity”.
